# Changes are numbered by the printed parent chain.
# Amino acid sequences for entries named in this document (tags omitted). A change or cut given only in a name is not applied to a line headed by its entry. Residues count along the entry.
# UniProt Q9NUM4, 122-210: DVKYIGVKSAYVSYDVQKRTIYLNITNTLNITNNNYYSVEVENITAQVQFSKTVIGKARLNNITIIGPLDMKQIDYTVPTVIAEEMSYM
# B1: TM-14: anti-TMEM106B monoclonal antibody; CDR-H1-3 SEQ ID NO: 2, 48, 91; CDR-L1-3 SEQ ID NO: 132, 172, 196 (antibody, V domains shown)
# VH: QVQLQQSGPELVRPGTSVKVSCKASGYAFTNYLIEWVKQRPGQGLEWIGVINPGGGNTDYSEKFKDKATLTADKSSNTAYIQLSSLTSEDSAVYFCARSPYSSYVGYAVDYWGQGTSVTVSS
# VL: DIQMTQSPSSLSASLGERVSLTCRASQDIGSNLNWLQQEPDGTIKRLIYATSSLDSGVPKRFSGSRSGSDYSLTISSLESEDFVVYYCLQYASSPRTFGGGTRLEIK
# B2: TM-85: anti-TMEM106B monoclonal antibody; VH SEQ ID NO: 490, VL SEQ ID NO: 525 (antibody, V domains shown)
# VH: QVQLQQPGAELVRAGTSVKLSCKASGYTFIGYWMHWVKQRPGRGLEWIGRIDPYSGDTRYNEKFKNKATLTVDKPSSTAYMQLSSLTSEDSAVYYCARYGLGHAMDYWGQGTSVTVSS
# VL: DIAMSQSQKFMSTSVGDRVSVTCKASQNVGTNVAWYQQKPGQSPKALIYSASYRYSGVPDRFTGSGSGTDFTLTISNVQSEDLAEYFCQQYNSYPLTFGAGTKLEMK
# modifications: Variable Heavy Chain -- TM-85; Variable Light Chain -- TM-85
# B3: TM-31: anti-TMEM106B monoclonal antibody; CDR-H1-3 SEQ ID NO: 11, 62, 105; CDR-L1-3 SEQ ID NO: 127, 178, 209 (antibody, V domains shown)
# VH: QVQLQQSGAELAKPGASVKVSCKASGYTFISYWMNWVKQRPGQGLEWIGYINPTSGYTRYNQKFKDKATLTADKSSSTAYMQLSSLTYEDSAVYYCARSPPTVVLIGYFDYWGQGTTLTVSS
# VL: DIKMTQSPSSMYASLGERVTFTCKASQDINSYLSWFQQKPGKSPKTLIYRGNGLVDGVPSRFSGSGSGQDYSLTISSLEYEDMGIYYCLQYDEFPFTFASGTKLEIK
# B4: TM-27: anti-TMEM106B monoclonal antibody; CDR-H1-3 SEQ ID NO: 2, 58, 101; CDR-L1-3 SEQ ID NO: 141, 177, 206 (antibody, V domains shown)
# VH: QVQLQQSGAELVRPGTSVKVSCKASGYALTNYLIEWVKQRPGQGLEWIGVINPGSGSTKYNEKFKGKATLTADKSSSTAYMQLSSLTSEDSAVYFCARIIYDHDWYFDVWGTGTTVTVSS
# VL: QIVLTQSPAIMSASPGEKVTISCSASSSISYMYWYQQKPGSSPKPWIYRTSTLASGVPARFSGSGSGTSYSLTISSMEAEDAATYYCQQYHSYPRTFGGGTKLEIK
# B5: TM-2: anti-TMEM106B monoclonal antibody; CDR-H1-3 SEQ ID NO: 3, 36, 79; CDR-L1-3 SEQ ID NO: 121, 161, 185 (antibody, V domains shown)
# VH: HIQLVQSGPELKKPGETVKISCKASGYTFTEYPMHWVKQAPGKGFRWMGMIYTNTGEPTYAAEFKGRFAFSLETSASTGYLQINNLKNEDSATYFCVTAGYWGQGTLVTVSA
# VL: QIVLTQSPAILSASPGEKVTMTCRASSSVSYIHWFLQKPGSSPKPWIYATSNLASGVPFRFIGSGSGTSYSLTISGVEAEDSATYYCQQWSSNPSTFGAGTKLELK
# B6: TM-77: anti-TMEM106B monoclonal antibody; VH SEQ ID NO: 482, VL SEQ ID NO: 517 (antibody, V domains shown)
# VH: QIQLQQSGAELVRPGASVKLSCKASGYTFTDYEMHWVKQTPVHGLEWIGVIDPETGGTAYNQMFKGKATLTADKSSSTAYMDLRSLTSEDSAVYYCVKYGIEGYWGQGTTLTVSS
# VL: DVVMTQIPLTLSVTLGQPASISCKSSQSLFHSNGKTYLNWLLQRPGQSPKLLIYMVSKLESGVPDRFSGSGSGTDFTLKISRVEAEDLGVYYCLQVTHFPLTFGAGTKLELK
# modifications: Variable Heavy Chain -- TM-77; Variable Light Chain -- TM-77
# B7: TM-33: anti-TMEM106B monoclonal antibody; CDR-H1-3 SEQ ID NO: 22, 64, 107; CDR-L1-3 SEQ ID NO: 146, 179, 210 (antibody, V domains shown)
# VH: EFQLQQSGPELVKPGASVKISCKASGYSFTDYNMNWVKQSNGKSLEWIGVINPNYGTTSYNQKFKGKATLTVDQSSSTAYMQLNSLTSEDSAVYYCASSYWGQGTLVTVSA
# VL: DIVMTQSQKFMSTTVGDRVSITCKASQNVGTAVAWYQQKPGQSPKLLIYSASNRYTGVPDRFTGSGSGTDFTLTISNMQSEDLADYFCQQYSSYPYTFGGGTKLEIK
# B8: TM-46: anti-TMEM106B monoclonal antibody; CDR-H1-3 SEQ ID NO: 30, 72, 114; CDR-L1-3 SEQ ID NO: 153, 182, 216 (antibody, V domains shown)
# VH: QVQLQQSGADLVKPGASVKISCKASGYAFSSFWMNWVKLRPGKGLEWIGQIYPGDGDTDYNGKFKDKATLTADTSSNTAYMQLSRLTSEDSAVYFCARGDGFSYFDYWGQGTILTVSS
# VL: QIVLTQSPVIMSASPGERVTMTCCASSRVNYMHWYQQKSGSYPKRWIYDTSKLASGVPGRFSGSGSGTSYSLTISSMEAEDAATYYCQQWSSNPPTFGGGTKLEIK
# B9: TM-6: anti-TMEM106B monoclonal antibody; CDR-H1-3 SEQ ID NO: 7, 40, 83; CDR-L1-3 SEQ ID NO: 125, 165, 189 (antibody, V domains shown)
# VH: QVQLQQSGAELVKPGASVKLSCKASGYTFTEYTIHWVKQRSGQGLEWIGWFYPGSTYIDYNEKFKDKATLTADKSSSTVYLELSRLTSEDSAVYFCARHEEDYSNWFPFWGQGTLVTVSA
# VL: DIQMSQSSSYLSVSLGGRVTITCKASDHINNWLAWYQQKPGNAPRLLISGATSLETGVPSRFSGSGSGKDYTLSITSLQTEDVATYYCQQYWSSPYTFGGGTKLEIK
# B10: TM-66: anti-TMEM106B monoclonal antibody; VH SEQ ID NO: 472, VL SEQ ID NO: 508 (antibody, V domains shown)
# VH: EVMLVESGGALVEPGGSLKLSCAASGITFSNYAMSWIRQTPEKRLEWVATIGSVGSYTYYPDSVKGRFTISRDNARNTLYLQMSSLRSEDTAMYYCARQEGSSHFDYWGQGTTLTVSS
# VL: DVVVTQTPPSLPVSFGDQVSISCRSSQSLVNSYGKTFLSWYLHKPGQSPQLLIYGISNRFSGVPDRFSGSGSGTVFTLKISTIKPEDLGMYYCLQGTHPPLTFGAGTKLEMK
# modifications: Variable Heavy Chain -- TM-66; Variable Light Chain -- TM-66
# B11: TM-56: anti-TMEM106B monoclonal antibody; VH SEQ ID NO: 465, VL SEQ ID NO: 501 (antibody, V domains shown)
# VH: QVHLQQSGAELAKPGASVKLSCKASGYTFTSYWMHWVKQRPGQGLEWIGYINPSSGYSKYNQRFKDKATLTADKSSTTAYMHLSSLTYADSAVYYCTREGGSISDWYFDVWGTGTTVTVSS
# VL: DIEMTQAAPSVPVTPGESVSISCRSSKSLLQNNGNTYLYWFLQRPGQPPQLLIYRMSNLASGVPDRFSGSGSGTAFTLRISRVEAEDVGVYYCMQHLEYPYTFGGGTKLEIK
# modifications: Variable Heavy Chain -- TM-56; Variable Light Chain -- TM-56
# B12: TM-39: anti-TMEM106B monoclonal antibody; CDR-H1-3 SEQ ID NO: 26, 68, 111; CDR-L1-3 SEQ ID NO: 150, 180, 213 (antibody, V domains shown)
# VH: HVQRQQSGTELAKPGASVKLSCKTSGYTFTDYWMHWIKQRPGQGLEWIGFINPSSGYTKYNQNFKDKATLTADKSSSTAYMQLSSLTYEDSAVFYCAREAGSISDWYFDVWGTGTTVTVSS
# VL: B11 VL with E3V, V11I, S28T, Q31N, N32S, E98D, K108Q
# B13: TM-51: anti-TMEM106B monoclonal antibody; CDR-H1-3 SEQ ID NO: 34, 76, 118; CDR-L1-3 SEQ ID NO: 158, 181, 221 (antibody, V domains shown)
# VH: QVQLQQPGAELVKPGASVKLSCKASGYTFTTYWIDWVKQRPGQGLEWIGNMFPGSSRTNYNEKFKSRATLTVDTSSSTAYMQLSSLTSDDSAVYYCARKEGLWTYGYDGGAWFAYWGQGTLVTVSA
# VL: DIVMSQSPSSLAVSVGEKVTMSCKSSQSLRNSRTRKNYLAWYQQKPGQSPKLLIYWASTRESGVPDRFTGSGSGTDFTLTISSVQAEDLAIYYCKQSYNLLTFGAGTKLELK
# B14: TM-69: anti-TMEM106B monoclonal antibody; VH SEQ ID NO: 474, VL SEQ ID NO: 510 (antibody, V domains shown)
# VH: QVQLKESGPDLVQPSQTLSLTCTVSGFSFTSYGVHWVRQPPGKGLEWVGIMGWDDKKYYNSALKSRLSISRDTSKNQVFLKLSSLQTEDTAMYYCTREAGPYGMDYWGQGTSVTVSS
# VL: DVVMTQTPLSLPVSLGDQASISCRSSQSLVHSNGNTYLHWYLQKPGQSPKLLIYKVSNRFSGVPDRFSGSGSGTDFTLKISRVEAEDLGVYFCSQNTHVPLTFGAGTKLELK
# modifications: Variable Heavy Chain -- TM-69; Variable Light Chain -- TM-69
# B15: TM-34: anti-TMEM106B monoclonal antibody; CDR-H1-3 SEQ ID NO: 23, 65, 108; CDR-L1-3 SEQ ID NO: 147, 161, 211 (antibody, V domains shown)
# VH: EVQLVESGGGLVKPGGSLKLSCAASGFSFSDSGMDWVRQAPEKGLEWFAYISSGSSTTHYADTVKGRFIISRDNAKNTLFLQMTSLRSEDTAMYYCVRRDGNYWYFDVWGTGTTVTVSS
# VL: QIVLSQSPVILSASPGEKVTMTCRATSSVTYMHWYQLKPGSSPKPWIYATSNLASGVPARFSGSGSGTSYSLTISRVEAEDAATYYCQQWSSNPYTFGGGTKLEIK
# Molecular target: GST-TMEM106B (truncated, comprising amino acids 122-210 of SEQ ID NO:1) (Homo sapiens, UniProt Q9NUM4)
# Test: Pre-mix epitope binning of anti-TMEM106B antibodies (Carterra / Lake Pharma)
# Design: key: Non-binder: an anti-TMEM106B antibody that was not capable of binding to the GST-TMEM106B polypeptide fusion used in these binning experiments (assigned bin 5)
# Conditions: Non-binder: not capable of binding the GST-TMEM106B fusion (assigned bin 5)
row,Molecule,Binding Community/Bin
1,B1,Non-binder
2,B2,Non-binder
3,B3,Non-binder
4,B4,Non-binder
5,B5,Non-binder
6,B6,Non-binder
7,B7,Non-binder
8,B8,Non-binder
9,B9,Non-binder
10,B10,Non-binder
11,B11,Non-binder
12,B12,Non-binder
13,B13,Non-binder
14,B14,Non-binder
15,B15,Non-binder
